Molecules are shown by their SMILES. The list shows a part of the results, in another mix than the full data. Calls of active or inactive are those of the source.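 How the source made its calls: active means activation above its plate's cutoff, the mean activation of test wells on that plate plus 3 SD (cut at about 19% in these data); inactive means the rest.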

Drawing on PubChem BioAssay AID1424 (The Scripps Research Institute Molecular Screening Center, 2008), this text covers activation for 22 molecules.

In this experiment the test system is transient receptor potential cation channel N1 (TRPN1/NompC), Danio rerio. The experiment is described as follows: TRPN1 activation via calcium influx – cell-based, HEK293, calcium fluorescence, zebrafish, primary screen (AID 1424).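 Further: 0% = DMSO alone and 100% = 87 µM carbachol.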 To be noted: HEK293 zebrafish TRPN1-YFP, Fluo-8 calcium fluorescence; at 3 µM; hits give high values; 100% = response to 87 µM carbachol. The procedure, abridged: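 Material: zebrafish TRPN1-YFP in HEK293 cells. Doses: one dose of 3 µM, 0.3% DMSO. Incubation: dye 1 h 37 °C plus 30 min RT. Measured by: intracellular calcium fluorescence with Fluo-8.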
Turning to `CC(C)(C)c1ccc(OP(C)(=O)O)cc1`, the activation is inactive: 1.52%.

Consider `COc1ccccc1OP(C)(=O)Nc1ccccc1Br` (configuration not stated), for which the activation was inactive: -2.16%.

On to `CCc1ccc(OP(C)(=O)Nc2cccnc2)cc1` (configuration not stated), for which the activation was inactive: -1.47%.

Regarding `CP(=O)(Oc1ccccc1)N1CCOC1=O` (configuration not stated), the activation is inactive: 0.63%.

As to `O=C(OCCCN1CCCC1)C(O)(c1ccccc1)C1CCCCC1` (configuration not stated), the activation is inactive: 1.41%.

For `COc1ccccc1OP(C)(=O)Nc1c(C)n(C)n(-c2ccccc2)c1=O` (configuration not stated), the activation was inactive: 0.04%.

Turning to `COc1ccc(OP(C)(=O)Nc2ccc(Br)cc2)cc1` (configuration not stated), the activation was inactive: 0.35%.

`CCN(CC)CC(O)COC(=O)C(O)(c1ccccc1)C1CCCCC1` (configuration not stated): the activation is inactive: -0.12%.

`CCc1ccc(OP(C)(=O)O)cc1`: the activation was inactive: 1.4%.

Consider `COc1ccccc1OP(C)(=O)Nc1ccc(C)cc1C` (configuration not stated), for which the activation was inactive: 0.07%.

Consider `CP(=O)(Nc1ccccn1)Oc1ccccc1` (configuration not stated), for which the activation was inactive: 0.43%.

Turning to `O=[N+]([O-])c1cc([N+](=O)[O-])c(Nc2ccccn2)c([N+](=O)[O-])c1`, the activation is inactive: 3.1%.

In the case of `Cc1c(NP(C)(=O)Oc2ccc(C(C)C)cc2)c(=O)n(-c2ccccc2)n1C` (configuration not stated), the activation is inactive: 0.18%.

Take `CN(C)CCOC(=O)C(O)(c1ccccc1)C1CCCC1` (configuration not stated): the activation was inactive: 0.33%.

Turning to `COc1ccc(OP(C)(=O)Nc2ccccn2)cc1` (configuration not stated), the activation is inactive: -0.59%.

On to `COc1ccccc1OP(C)(=O)Nc1ccc(Br)cc1` (configuration not stated), for which the activation is inactive: 1.28%.

As to `CP(=O)(OCCOc1ccccc1)OCCOc1ccccc1`, the activation is inactive: -0.48%.

For the molecule `CP(=O)(Nc1ccc(Cl)cc1Cl)Oc1ccccc1` (configuration not stated), the activation was inactive: -1.56%.

On to `Cc1nc2ccc3ccccc3c2o1.O=[N+]([O-])c1cc([N+](=O)[O-])c(O)c([N+](=O)[O-])c1`, for which the activation was inactive: -0.66%.

As to `COc1ccc(OP(C)(=O)Nc2ccccc2Br)cc1` (configuration not stated), the activation is inactive: -0.07%.

Regarding `COc1ccccc1OP(C)(=O)Nc1ccc(C)c(C)c1` (configuration not stated), the activation was inactive: 0.26%.

With `Cc1cc(C)cc(OP(C)(=O)Nc2cccc(C(F)(F)F)c2)c1` (configuration not stated), the activation is inactive: -1.87%.
